Protein sequences, listed by entry. Tags and fused reporters are not part of them.
UniProt P49356, whole entry: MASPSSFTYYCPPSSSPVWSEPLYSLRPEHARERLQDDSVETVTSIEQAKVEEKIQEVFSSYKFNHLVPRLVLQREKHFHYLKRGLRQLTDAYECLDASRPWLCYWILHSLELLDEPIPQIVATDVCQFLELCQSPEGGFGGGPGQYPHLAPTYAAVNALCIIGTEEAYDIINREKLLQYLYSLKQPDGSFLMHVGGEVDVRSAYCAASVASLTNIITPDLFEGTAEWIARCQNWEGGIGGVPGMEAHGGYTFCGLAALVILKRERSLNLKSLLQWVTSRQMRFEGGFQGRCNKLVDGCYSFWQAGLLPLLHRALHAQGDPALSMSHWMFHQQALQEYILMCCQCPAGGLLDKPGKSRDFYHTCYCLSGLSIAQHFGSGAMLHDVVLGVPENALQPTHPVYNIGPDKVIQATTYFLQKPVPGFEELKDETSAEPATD

According to patent EP0989983B1 (SCHERING CORPORATION, priority 1997, dated 1998):

Columns and labels:
[1] = target: farnesyl protein transferase (Homo sapiens, UniProt P49354+P49356); assay: FPT IC50, inhibition of farnesyl protein transferase, in vitro enzyme assay (procedure of WO 95/10516); details: read-out: FPT C50, several values in a cell are repeat determinations
COS Cell = COS Cell IC50 (Cell-Based Assay, procedure of WO 95/10516); details: read-out: COS Cell IC50, several values in a cell are repeat determinations
Human tumor cells = assay: Soft Agar Assay (anchorage-independent growth, colony count after MTT staining); details: read-out: Soft Agar IC50; colony outgrowth 10-16 days at 37°C in 0.3% agarose
Procedure: Anchorage-independent growth is a characteristic of tumorigenic cell lines. Human tumor cells are suspended in growth medium containing 0.3% agarose and an indicated concentration of a farnesyl transferase inhibitor. The solution is overlayed onto growth medium solidified with 0.6% agarose containing the same concentration of farnesyl transferase inhibitor as the top layer. After the top layer is solidified, plates are incubated for 10-16 days at 37°C under 5% CO2 to allow colony outgrowth. After incubation, the colonies are stained by overlaying the agar with a solution of MTT (3-[4,5-dimethylthiazol-2-yl]-2,5-diphenyltetrazolium bromide, Thiazolyl blue) (1 mg/mL in PBS). Colonies can be counted and the IC50's can be determined.

Row | SMILES | IC50 [1] | IC50 (COS Cell) | IC50 (Human tumor cells)
1 | CCCCC(=O)N1CCN(C2c3ncc(Br)cc3CCc3cc(Cl)cc(Br)c32)CC1C(=O)NCCCOCC (centres unmarked) | 0.072 µM | – | –
2 | CCCCC(=O)N1CCN(C2c3ncc(Br)cc3CCc3cc(Cl)cc(Br)c32)CC1C(=O)NCCCOC (centres unmarked) | 0.05 µM | – | –
3 | CCCCC(=O)N1CCN(C2c3ncc(Br)cc3CCc3cc(Cl)cc(Br)c32)CC1C(=O)NCc1cccnc1 (single isomer, unassigned) [256] | – | 0.0053 µM | 0.0155 µM
4 | O=C(NCCCn1ccnc1)C1CN(C2c3ccc(Cl)cc3CCc3cc(Br)cnc32)CCN1C(=O)NC1CCCCC1 (centres unmarked) | – | 0.004 µM | –
5 | CCCS(=O)(=O)N1CCN(C2c3ccc(Cl)cc3CCc3cc(Br)cnc32)CC1C(=O)NCc1cccnc1 (centres unmarked) | – | 0.25 to 0.5 µM | 0.213 µM
6 | CN(Cc1cccnc1)C(=O)C1CN(C2c3ccc(Cl)cc3CCc3cc(Br)cnc32)CCN1C(=O)CCC1CCCCC1 (centres unmarked) | 0.211 µM and 0.156 µM | – | –
7 | CS(=O)(=O)N1CCN(C2c3ncc(Br)cc3CCc3cc(Cl)cc(Br)c32)CC1C(=O)NCc1cccnc1 (single isomer, unassigned) [206] | 0.034 µM | – | –
8 | O=C(NCc1cccnc1)C1CN(C2c3ccc(Cl)cc3CCc3cc(Br)cnc32)CCN1C(=O)C1CCCCCC1 (centres unmarked) | 0.01 µM and 0.014 µM | 0.094 µM | –
9 | Cn1cncc1CCNC(=O)C1CN(C2c3ccc(Cl)cc3CCc3cc(Br)cnc32)CCN1C(=O)NC1CCCCC1 (centres unmarked) | – | 0.0004 µM | 0.0015 µM
10 | CCCCC(=O)N1CCN(C2c3ncc(Br)cc3CCc3cc(Cl)cc(Br)c32)CC1C(=O)NCCC#N (centres unmarked) | 0.039 µM | – | –
11 | O=C(NCc1cccnc1)C1CN(C2c3ccc(Cl)cc3CCc3cc(Br)cnc32)CCN1C(=O)NC1CCCC1 (centres unmarked) | – | 0.0285 µM | –
12 | O=C(NCc1cccnc1)C1CN(C2c3ccc(Cl)cc3CCc3cc(Br)cnc32)CCN1C(=O)C1CCCC1 (centres unmarked) | 0.023 µM and 0.012 µM and 0.015 µM | 0.049 µM and 0.094 µM | –
13 | O=C(NCc1cccnc1)C1CN(C2c3ccc(Cl)cc3CCc3cc(Br)cnc32)CCN1C(=O)NC1CCCCCC1 (centres unmarked) | 0.0094 µM and 0.0087 µM | 0.081 µM | –
14 | CC(C)CNC(=O)N1CCN(C2c3ccc(Cl)cc3CCc3cc(Br)cnc32)CC1C(=O)NCc1cccnc1 (centres unmarked) | 0.0071 µM and 0.0089 µM | 0.025 µM | 0.064 µM
15 | CCCC(=O)N1CCN(C2c3ccc(Cl)cc3CCc3cc(Br)cnc32)CC1C(=O)NCc1cccnc1 (centres unmarked) | 0.415 µM and 0.29 µM | – | –
16 | CCCCC(=O)N1CCN(C2c3ncc(Br)cc3CCc3cc(Cl)cc(Br)c32)CC1C(=O)NCCCn1ccnc1 (centres unmarked) | 0.01 µM | – | –
17 | CCCCCN1C(=O)CN(C2c3ccc(Cl)cc3CCc3cc(Br)cnc32)C[C@@H]1C(=O)NCc1cccnc1 (some centres unmarked) | 0.0115 µM | 0.0595 µM | 0.14 µM
18 | O=C1CN(C2c3ccc(Cl)cc3CCc3cc(Br)cnc32)C[C@H](C(=O)NCc2cccnc2)N1 (some centres unmarked) | 2.2 µM | – | –
19 | COCCOCC(=O)N1CCN(C2c3ncc(Br)cc3CCc3cc(Cl)cc(Br)c32)CC1C(=O)NCc1cccnc1 (centres unmarked) | 0.0055 µM | – | –
20 | CCCCC(=O)N1CCN(C2c3ncc(Br)cc3CCc3cc(Cl)cc(Br)c32)CC1C(=O)NCc1ccco1 (centres unmarked) | 0.062 µM | – | –

Row | SMILES | IC50 [1] | IC50 (COS Cell) | IC50 (Human tumor cells)
21 | O=C(NCCCN1CCCC1=O)C1CN(C2c3ccc(Cl)cc3CCc3cc(Br)cnc32)CCN1C(=O)NC1CCCCC1 (centres unmarked) | 0.012 µM and 0.015 µM | 0.0196 µM | 0.018 µM
22 | CCCCC(=O)N1CCN(C2c3ncc(Br)cc3CCc3cc(Cl)cc(Br)c32)CC1C(=O)NCc1cccc(OC)c1 (centres unmarked) | 0.047 µM | – | –
23 | O=C(NCc1cccnc1)C1CN(C2c3ccc(Cl)cc3CCc3cc(Br)cnc32)CCN1C(=O)NC1CCCCC1 (centres unmarked) | – | – | 0.038 µM
24 | Cn1cnc(CCNC(=O)C2CN(C3c4ccc(Cl)cc4CCc4cc(Br)cnc43)CCN2C(=O)NC2CCCCC2)c1 (centres unmarked) | 0.0273 µM | 0.108 µM | 0.307 µM
25 | CCCCCN1C(=O)CN(C2c3ccc(Cl)cc3CCc3cc(Br)cnc32)C[C@H]1C(=O)NCc1cccnc1 (some centres unmarked) | 1.2 µM | – | –
26 | CS(=O)(=O)N1CCN(C2c3ncc(Br)cc3CCc3cc(Cl)cc(Br)c32)CC1C(=O)NCc1ccc[n+]([O-])c1 (centres unmarked) | 0.077 µM | – | –
27 | O=C(NCc1cccnc1)C1CN(C2c3ccc(Cl)cc3CCc3cc(Br)cnc32)CCN1C(=O)CCC1CCCCC1 (centres unmarked) | – | – | 0.1 to 0.5 µM and 0.1 µM
28 | CCCCC(=O)N1CCN(C2c3ncc(Br)cc3CCc3cc(Cl)cc(Br)c32)CC1C(=O)NCCCN1CCCC1=O (centres unmarked) | 0.0055 µM | – | –
29 | CCCCC(=O)N1CCN(C2c3ncc(Br)cc3CCc3cc(Cl)cc(Br)c32)CC1C(=O)NCC1CCCO1 (centres unmarked) | 0.031 µM | – | –
30 | O=C(NCCCN1CCCC1=O)C1CN(C2c3ncc(Br)cc3CCc3cc(Cl)cc(Br)c32)CCN1C(=O)Cc1cc[n+]([O-])cc1 (centres unmarked) | 0.011 µM | – | –
31 | CCCCC(=O)N1CCN(C2c3ccc(Cl)cc3CCc3cc(Br)cnc32)C[C@@H]1C(=O)NCc1cccnc1 (single isomer, unassigned) [203] | 0.0033 µM | – | –
32 | CCCCC(=O)N1CCN(C2c3ncc(Br)cc3CCc3cc(Cl)cc(Br)c32)CC1C(=O)NCCN1CCCC1=O (centres unmarked) | 0.016 µM | – | –
33 | CCCCC(=O)N1CCN(C2c3ncc(Br)cc3CCc3cc(Cl)cc(Br)c32)CC1C(=O)NCc1ccc2c(c1)OCO2 (centres unmarked) | 0.14 µM | – | –
34 | O=C(NCc1cccnc1)[C@H]1CN(C2c3ccc(Cl)cc3CCc3cc(Br)cnc32)CCN1C(=O)NC1CCCCC1 (some centres unmarked) | 0.0042 µM and 0.003 µM | 0.0064 µM | 0.01 to 0.05 µM and 0.011 µM
35 | CCCCC(=O)N1CCN(C2c3ncc(Br)cc3CCc3cc(Cl)cc(Br)c32)CC1C(=O)NCCCC(OCC)OCC (centres unmarked) | 0.18 µM | – | –
36 | CCCCC(=O)N1CCN(C2c3ncc(Br)cc3CCc3cc(Cl)cc(Br)c32)CC1C(=O)NCc1cncnc1 (centres unmarked) | 0.012 µM | – | –
37 | O=C(NCc1cccnc1)[C@H]1CN(C2c3ccc(Cl)cc3CCc3cc(Br)cnc32)CCN1C(=O)NCC1CCCCC1 (some centres unmarked) | 0.0045 µM and 0.0052 µM | 0.0154 µM and 0.025 µM | 0.0745 µM
38 | CN(C)C(=O)CCC(=O)N1CCN(C2c3ccc(Cl)cc3CCc3cc(Br)cnc32)CC1C(=O)NCc1cccnc1 (centres unmarked) | 0.012 µM and 0.014 µM | 0.0095 µM and 0.0125 µM | 0.0525 µM
39 | COCCOCC(=O)N1CCN(C2c3ncc(Br)cc3CCc3cc(Cl)cc(Br)c32)CC1C(=O)NCCCN1CCCC1=O (centres unmarked) | 0.017 µM | – | –
40 | O=C(NCc1cccnc1)C1CN(C2c3ncc(Br)cc3CCc3cc(Cl)cc(Br)c32)CCN1 (centres unmarked) | 0.029 µM | – | –

Row | SMILES | IC50 [1] | IC50 (COS Cell) | IC50 (Human tumor cells)
41 | CCCCC(=O)N1CCN(C2c3ccc(Cl)cc3CCc3cc(Br)cnc32)CC1C(=O)NCCc1c[nH]cn1 (centres unmarked) | 0.0135 µM and 0.0095 µM | – | 0.041 µM and 0.047 µM
42 | CCCCC(=O)N1CCN(C2c3ncc(Br)cc3CCc3cc(Cl)cc(Br)c32)CC1C(=O)NCCOC (centres unmarked) | 0.017 µM | – | –
43 | CCCCC(=O)N1CCN(C2c3ccc(Cl)cc3CCc3cc(Br)cnc32)CC1C(=O)NCc1cccnc1 (centres unmarked) | 0.033 µM and 0.02 µM | – | –
44 | CCCCC(=O)N1CCN(C2c3ccc(Cl)cc3CCc3cc(Br)cnc32)CC1NC(=O)Cc1cccnc1 (centres unmarked) | 0.093 µM and 0.101 µM | 1.1 µM | > 1 µM
45 | O=C1CN(C2c3ccc(Cl)cc3CCc3cc(Br)cnc32)C[C@@H](C(=O)NCc2cccnc2)N1 (some centres unmarked) | > 100 µM | – | –
46 | CCCCC(=O)N1CCN(C2c3ncc(Br)cc3CCc3cc(Cl)cc(Br)c32)CC1C(=O)NCCN1CCOCC1 (centres unmarked) | 0.055 µM | – | –
47 | O=C(NCCc1c[nH]cn1)C1CN(C2c3ccc(Cl)cc3CCc3cc(Br)cnc32)CCN1C(=O)NC1CCCCC1 (centres unmarked) [Compound 227] | 0.0036 µM | – | –
48 | CCCCNC(=O)N1CCN(C2c3ccc(Cl)cc3CCc3cc(Br)cnc32)CC1C(=O)NCc1cccnc1 (centres unmarked) | 0.314 µM and 0.186 µM | – | –
49 | O=C(NCc1cccnc1)C1CN(C2c3ccc(Cl)cc3CCc3cc(Br)cnc32)CCN1C(=O)NCC1CCCCC1 (single isomer, unassigned) [241] | 0.0115 µM and 0.0095 µM and 0.009 µM | 0.0535 µM | 0.0835 µM
50 | CS(=O)(=O)N1CCN(C2c3ncc(Br)cc3CCc3cc(Cl)cc(Br)c32)CC1C(=O)NCCCN1CCCC1=O (centres unmarked) | 0.012 µM | – | –
51 | CCCCC(=O)N1CCN(C2c3ncc(Br)cc3CCc3cc(Cl)cc(Br)c32)CC1C(=O)NCc1cccnc1 (single isomer, unassigned) [201] | 0.0032 µM | – | –
52 | CCCCC(=O)N1CCN(C2c3ccc(Cl)cc3CCc3cc(Br)cnc32)C[C@@H]1C(=O)NCc1cccnc1 (single isomer, unassigned) [233] | 0.0042 µM and 0.005 µM | 0.037 µM | 0.057 µM
53 | CCCCC(=O)N1CCN(C2c3ncc(Br)cc3CCc3cc(Cl)cc(Br)c32)CC1C(=O)NCCCNC(=O)OC(C)(C)C (centres unmarked) | > 0.13 µM | – | –
54 | CS(=O)(=O)N1CCN(C2c3ncc(Br)cc3CCc3cc(Cl)cc(Br)c32)CC1C(=O)NCc1cccnc1 (single isomer, unassigned) [202] | 0.0029 µM | – | –
55 | COCCC(=O)N1CCN(C2c3ccc(Cl)cc3CCc3cc(Br)cnc32)CC1C(=O)NCc1cccnc1 (centres unmarked) | – | < 0.1 µM and 0.1 µM | 0.05 to 0.1 µM
56 | CCC(CC)C(=O)N1CCN(C2c3ccc(Cl)cc3CCc3cc(Br)cnc32)CC1C(=O)NCc1cccnc1 (centres unmarked) | 0.87 µM and 1.1 µM | – | –
57 | O=C(NCc1cccnc1)C1CN(C2c3ccc(Cl)cc3CCc3cc(Br)cnc32)CCN1C(=O)CCC1CCCC1 (centres unmarked) | 0.026 µM and 0.028 µM | – | –
58 | CCCCCCC(=O)N1CCN(C2c3ccc(Cl)cc3CCc3cc(Br)cnc32)CC1C(=O)NCc1cccnc1 (centres unmarked) | 0.25 µM and 0.183 µM | – | –

Values joined by “and” are separate entries in the source; they are usually repeats but may differ in a detail not shown here. Equal values may be shown once.
